# Measured affinities in a library of Ab-14 heavy chain variants

Reference: Li et al. 2023, doi:10.1038/s41467-023-39022-2. File: FLAb, binding data.

Binding partner: SARS-CoV-2 spike HR2 peptide, sequence PDVDLGDISGINAS.

Each scFv is VH, the linker GGGGSGGGGSGGGGS, VL, as in the parent Ab-14, and differs from it in the CDRs of the heavy chain only.
VH: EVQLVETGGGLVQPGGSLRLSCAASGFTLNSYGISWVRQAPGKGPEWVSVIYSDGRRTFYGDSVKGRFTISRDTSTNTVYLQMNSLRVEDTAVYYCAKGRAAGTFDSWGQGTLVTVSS
VL: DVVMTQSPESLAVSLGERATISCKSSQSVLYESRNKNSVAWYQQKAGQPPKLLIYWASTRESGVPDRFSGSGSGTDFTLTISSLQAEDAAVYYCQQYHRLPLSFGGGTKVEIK

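The parent was found by panning a naive human phage display library on the peptide. The variants were designed computationally from a first round of random CDR variants and then made and measured. Group labels follow the data file (Ctrl: baseline library sampled from a position-specific scoring matrix, with some repeated check sequences; Rand: our label for a block that the file lists under HC and that is probably the random mutants of the ten best first-round binders; En: ensemble of fine-tuned language models; GP: Gaussian process model; GPLM: also part of the Gaussian process libraries; HC: hill climbing; Gen: genetic algorithm; Gibbs: Gibbs sampling; a sequence that several methods proposed may carry one label only). AlphaSeq pools MATa yeast showing the antibodies with MATalpha yeast showing the peptide. Pairs that bind mate more often; barcode pairs of the diploids are counted by sequencing. Scores were corrected for input abundance and mapped to Kd with protein pairs of known affinity run in the same pool. The assay was run in six technical replicates.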

Substitutions are numbered in sequence along the VH above, starting at 1 (not Kabat).
This list holds designs with at most six substitutions.
The read-out is the apparent dissociation constant on a log10 scale (nM): the lower, the stronger.
Replicates are averaged; those with no signal do not enter the mean.
"not detected" marks a missing value. The strain was present, yet no cells mated with the target were sequenced in any replicate, which points to weak or no binding.
Background: pairings of all heavy chain designs with three empty control strains gave a value in 1% of cases (median 2.08, 5th percentile 0.84). Values in that range, when seen in few replicates, are hard to tell from nonspecific mating.
Some sequences occur more than once in the pool; their replicates are pooled.
The authors averaged sequences with at least three values out of six and counted those with two or fewer as poor binders.
Values of this round are not directly comparable with the first-round values of the same sequences.

changes	group	mean log10 Kd (nM)	detected
Y32G I34E G61S A102G	Rand	not detected	0 of 6
G26S T28S G61A R100K A101T	GPLM_Gen	0.48	6 of 6
S31E S53A A102C	Ctrl	-0.89	6 of 6
Y32T R56E A101R	Ctrl	not detected	0 of 6
S31E G103V D106I	GPLM_HC	not detected	0 of 6
T28Q F59V S63A	GP_HC	2.14	4 of 6
G26L A102G	Ctrl	not detected	0 of 6
G26K T28N G61D R100Q A101T	GP_Gibbs	not detected	0 of 6
T28D G61A S63R A101E S107T	GP_Gibbs	0.14	6 of 6
F27V T28W I34M G61N	Ctrl	not detected	0 of 6
S31L G61S T104F	Rand	1.98	5 of 6
T28K S31N A101T	GP_Gen	1.51	3 of 6
T28S S31D F59W A101T	GPLM_Gen	-0.54	6 of 6
G26M N30E S53A D106K	GP_HC	not detected	0 of 6
T28S S31E R100Q A101T S107N	GP_Gibbs	-0.50	6 of 6
N30L G61Q S107L	Ctrl	not detected	0 of 6
F59Q S107T	Ctrl	0.87	6 of 6
T28S S31D R100K D106I	GP_HC	1.74	1 of 6
T28S G61V R100Q A101V	GPLM_Gen	1.74	3 of 6
T28S F59A R100N	GPLM_Gibbs	0.72	6 of 6
G26M T28E S53A R100K	GP_Gen	1.39	3 of 6
G61A S63R R100Q S107L	GP_Gibbs	2.60	2 of 6
T28S S31Q G61S R100S	GPLM_HC	-0.15	6 of 6
N30E S53A S107T	GP_Gen	0.48	6 of 6
S63F R100Y	Ctrl	not detected	0 of 6
T28Q S31M G61A R100Q A101T	GP_Gibbs	1.17	5 of 6
T28D S31E S53A G61T R100G A101N	En_HC	-0.43	6 of 6
S31Q R100K	Ctrl	1.25	6 of 6
N30D I51L R100G F105A D106L	Rand	not detected	0 of 6
S31E S63D G103V S107T	GP_HC	not detected	0 of 6
T28D S31T A101E S107T	GP_Gen	0.08	4 of 6
G26L S31E G61H A101T	GP_HC	0.93	4 of 6
T28S R100Q S107L	GPLM_Gen	1.92	2 of 6
S53A R56W R100Q	Ctrl	0.91	6 of 6
S31E D106E S107F	GPLM_HC	1.67	3 of 6
T28N G61D R100Q A101T	GPLM_HC	-0.16	6 of 6
T28D S53M T104W F105L D106N	Rand	not detected	0 of 6
R56M G61T S63D A101T	GP_Gibbs	0.34	6 of 6
R56F R100A T104I	Ctrl	2.59	1 of 6
F27K S31E G103V S107L	GP_HC	2.54	3 of 6
T28D S35Q A101Q D106N S107Q	Ctrl	not detected	0 of 6
N30Q G61H F105A	Ctrl	not detected	0 of 6
T28S R56K S63R R100E	GP_Gibbs	1.04	6 of 6
T28D S31T R100K	GPLM_Gibbs	0.60	6 of 6
G26L L29I F59S	Ctrl	not detected	0 of 6
T28E F59M A101T	GP_Gibbs	0.28	6 of 6
S63D R100N A101T S107V	GP_Gibbs	0.06	6 of 6
R56G R100E F105K	Ctrl	2.69	2 of 6
R56K A101V S107V	GPLM_Gen	1.41	5 of 6
F27R G61A G103V	Ctrl	not detected	0 of 6
S31Q G61S T104F F105N	Rand	not detected	0 of 6
T28G G61A R100K S107V	GP_Gibbs	0.39	6 of 6
T28S S31A F59Y A101T	GP_Gibbs	1.05	6 of 6
G26K T28D A101V	GPLM_Gen	not detected	0 of 6
S31D G61S A101L S107T	GP_HC	0.42	6 of 6
R56M G61A S63A R100S	Ctrl	0.84	6 of 6
T28S S31D R56K G61I	GP_HC	-0.18	6 of 6
T28D S31E G61I	Ctrl+GP_HC	0.49	12 of 12
T28E L29I	Ctrl	1.46	6 of 6
T28D G61K	GPLM_Gen	0.27	6 of 6
T28D S63A R100Q A101T	GP_Gen	0.17	6 of 6
S31E G61T R100Q S107L	GP_HC	0.73	6 of 6

Again, the first 4 entries without any signal:

changes	group	mean log10 Kd (nM)	detected
Y32G I34E G61S A102G	Rand	not detected	0 of 6
Y32T R56E A101R	Ctrl	not detected	0 of 6
S31E G103V D106I	GPLM_HC	not detected	0 of 6
G26L A102G	Ctrl	not detected	0 of 6